Experimental data taken from US8394809B2, “Phenoxy-substituted pyrimidines as opioid receptor modulators” (priority 2009, dated 2013).

Amino acid sequences for entries named in this document (tags omitted).
UniProt P33533, whole entry: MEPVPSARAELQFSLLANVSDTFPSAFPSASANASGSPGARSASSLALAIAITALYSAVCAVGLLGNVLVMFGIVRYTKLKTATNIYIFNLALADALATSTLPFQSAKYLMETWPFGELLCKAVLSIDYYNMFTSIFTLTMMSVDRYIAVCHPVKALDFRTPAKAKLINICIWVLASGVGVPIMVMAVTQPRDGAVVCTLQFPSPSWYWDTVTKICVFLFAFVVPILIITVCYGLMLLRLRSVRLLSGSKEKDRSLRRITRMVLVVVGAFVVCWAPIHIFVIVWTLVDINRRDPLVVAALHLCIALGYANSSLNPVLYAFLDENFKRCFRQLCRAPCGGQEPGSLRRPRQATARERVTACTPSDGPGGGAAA
UniProt P33535, whole entry: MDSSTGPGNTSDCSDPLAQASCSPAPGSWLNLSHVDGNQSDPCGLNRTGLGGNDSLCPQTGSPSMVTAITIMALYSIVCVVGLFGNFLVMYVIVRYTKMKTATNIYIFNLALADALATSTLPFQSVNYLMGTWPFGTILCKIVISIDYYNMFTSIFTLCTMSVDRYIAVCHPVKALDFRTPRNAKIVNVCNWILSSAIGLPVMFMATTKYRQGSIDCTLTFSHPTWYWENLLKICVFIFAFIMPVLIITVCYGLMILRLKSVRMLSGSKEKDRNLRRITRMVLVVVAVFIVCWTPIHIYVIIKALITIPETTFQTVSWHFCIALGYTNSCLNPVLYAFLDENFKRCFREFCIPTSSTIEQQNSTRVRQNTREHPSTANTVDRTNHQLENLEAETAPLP

Assays:
delta opioid receptor = delta opioid receptor (Rattus norvegicus, UniProt P33533); assay: Rat brain delta opioid receptor binding assay; details: read-out: δ-binding (Naltrindole ligand) Ki; rat forebrain membranes, 0.25 nM [3H]naltrindole
mu opioid receptor = mu opioid receptor (Rattus norvegicus, UniProt P33535); assay: Rat brain mu opioid receptor binding assay; details: read-out: μ-binding Ki; rat forebrain membranes, ~0.8 nM [3H]DAMGO

| Compound | Ki (delta opioid receptor) | Ki (mu opioid receptor) |
| --- | --- | --- |
| COc1ccc(Oc2ncc(NC3CN4CCC3CC4)c(Oc3ccc(OC)cc3)n2)cc1 (stereo not drawn) | 0.254 µM | > 10 µM |
| COc1ccc(Oc2ncc(NC3CCN(CCc4ccccc4)CC3)c(Oc3ccc(OC)cc3)n2)cc1 | 1.87 µM | 163 µM |
| Brc1ccccc1Oc1ncc(NC[C@@H]2CCCN2)c(Oc2ccccc2Br)n1 | 0.885 µM | 8.78 µM |
